ChEMBL document CHEMBL3244147 (J Med Chem, 1978)

System: Mus musculus
Test: Toxicity in ip dosed CF1 mouse after 14 days of injection
Type: organism-based
Details: in vivo, 336 h
Outline: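 Female Carworth Farms mice, 16-20 g. Compound was suspended in 1% aqueous methylcellulose (ultrasonicated if insoluble) and diluted to doses of 4-324 mg/kg, given as 0.45 mL per mouse by a single intraperitoneal injection. Five mice per dose; survivors were counted at 14 days. LD50 is expressed in μmol/kg.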

Structure (SMILES): Cl.Nc1ccc(N(CCCl)CCCl)cc1
- LD50: 10.8 µmol/kg
